Binding of CDR-mutated scFvs to a peptide of the spike HR2 region

Reference: Li et al. 2023, doi:10.1038/s41467-023-39022-2. File: FLAb, binding data.

Binding partner: SARS-CoV-2 spike HR2 peptide, sequence PDVDLGDISGINAS.

Ab-14 is the parent antibody, in scFv form: VH, then the linker GGGGSGGGGSGGGGS, then VL. The heavy chain is unchanged in all variants.
VH: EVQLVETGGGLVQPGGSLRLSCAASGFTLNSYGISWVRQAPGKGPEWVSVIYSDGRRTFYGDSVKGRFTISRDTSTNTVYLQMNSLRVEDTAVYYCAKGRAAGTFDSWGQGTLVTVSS
VL: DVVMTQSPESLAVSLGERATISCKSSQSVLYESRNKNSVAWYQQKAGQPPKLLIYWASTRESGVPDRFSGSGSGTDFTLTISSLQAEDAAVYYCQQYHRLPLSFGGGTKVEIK

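Phage display of a naive human antibody library on the peptide gave the parent. Designed CDR sequences, proposed from the first random library and measured here. Their group label is 14L_GP_Gibbs (GP: Gaussian process model; Gibbs: Gibbs sampling; a sequence that several methods proposed may carry one label only). In AlphaSeq, yeast of one mating type display the scFv and yeast of the other type display the target. After mating in shaken culture at 30 °C for 16 h, diploids were selected and their barcode pairs sequenced. Read counts were normalised to the haploid input and turned into Kd by a linear fit to BCL2-family pairs of known affinity, for each replicate. Mating was done six times.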

The whole VL of each variant is written out. Numbers give log10(Kd / nM), so 0 is 1 nM and 3 is 1 µM. Smaller is tighter. The mean shown is taken over the replicates in which the pair was detected. Three control strains display no target. For all light chain designs, 4% of the pairings with them gave a signal, with a median of 2.64 and one signal in twenty below 1.59, so weak values seen in few replicates may be background. For each scFv, signals with the empty controls are counted beside the result, with their mean in brackets. The authors averaged sequences with at least three values out of six and counted those with two or fewer as poor binders. Values of this round are not directly comparable with the first-round values of the same sequences. Of ten entries with the parent sequence, four were seen in most replicates (averages 0.34 to 2.37), three in one and three in none, so single entries are noisy.

{"VL": "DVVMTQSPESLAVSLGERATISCKIDQWKLGESRNKNSVAWYQQKAGQPPKLLIYDASQRESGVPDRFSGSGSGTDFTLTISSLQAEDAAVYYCQQYHRLPLSFGGGTKVEIK", "log10 Kd (nM) by replicate": "0.01 / 0.46 / 0.01 / -0.04 / -0.11 / 0.27", "mean, log10 nM": "0.10", "signal with controls": "0 of 18"}
{"VL": "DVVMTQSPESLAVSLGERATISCKQSQSDGGEQRNKNSVAWYQQKAGQPPKLLIYEASTRCMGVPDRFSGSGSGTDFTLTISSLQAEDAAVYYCQQYHRLPLSFGGGTKVEIK", "log10 Kd (nM) by replicate": "0.14 / 0.07 / 0.17 / -0.09 / 0.18 / -0.01", "mean, log10 nM": "0.08", "signal with controls": "1 of 18 (2.80)"}
{"VL": "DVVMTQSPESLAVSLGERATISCKLSWSVELESRLKNSVAWYQQKAGQPPKLLIYHASTREWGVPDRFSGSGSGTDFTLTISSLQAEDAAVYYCQQYHRLPLSFGGGTKVEIK", "log10 Kd (nM) by replicate": "1.34 / 1.24 / 0.93 / 0.92 / 0.93 / 1.26", "mean, log10 nM": "1.10", "signal with controls": "0 of 18"}
{"VL": "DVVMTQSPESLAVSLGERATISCKWSQSWLMESMLSNSVAWYQQKAGQPPKLLIYNASQRESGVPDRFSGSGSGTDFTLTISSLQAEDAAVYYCQQYHRLPLSFGGGTKVEIK", "log10 Kd (nM) by replicate": "0.33 / 0.41 / 0.35 / 0.37 / 0.59 / 0.62", "mean, log10 nM": "0.45", "signal with controls": "0 of 18"}
{"VL": "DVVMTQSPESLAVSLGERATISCKLSQSWLYLSRNMNAVAWYQQKAGQPPKLLIYEASQRLSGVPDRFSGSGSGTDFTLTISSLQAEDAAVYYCQQYHRLPLSFGGGTKVEIK", "log10 Kd (nM) by replicate": "0.31 / -0.03 / -0.08 / -0.10 / -0.14 / -0.04", "mean, log10 nM": "-0.01", "signal with controls": "0 of 18"}
{"VL": "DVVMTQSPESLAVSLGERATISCKIHQSVLYEDRNINSVAWYQQKAGQPPKLLIYSASQRMSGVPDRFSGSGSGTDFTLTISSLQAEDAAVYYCQQYHRLPLSFGGGTKVEIK", "log10 Kd (nM) by replicate": "0.85 / 0.58 / 0.64 / 0.32 / 0.85 / 1.09", "mean, log10 nM": "0.72", "signal with controls": "1 of 18 (2.39)"}
{"VL": "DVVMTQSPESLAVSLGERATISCKLSQSTLYESRNTNSVAWYQQKAGQPPKLLIYQASQRLSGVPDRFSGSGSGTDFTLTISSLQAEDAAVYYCQQYHRLPLSFGGGTKVEIK", "log10 Kd (nM) by replicate": "0.56 / 0.45 / 0.02 / 0.20 / 0.42 / 0.38", "mean, log10 nM": "0.34", "signal with controls": "1 of 18 (1.99)"}
{"VL": "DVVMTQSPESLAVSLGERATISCKLQMSMLYESRNKNSVAWYQQKAGQPPKLLIYNASLRESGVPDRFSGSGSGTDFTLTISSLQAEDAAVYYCQQYHRLPLSFGGGTKVEIK", "log10 Kd (nM) by replicate": "-0.14 / -0.49 / -0.43 / -0.63 / -0.44 / -0.30", "mean, log10 nM": "-0.40", "signal with controls": "0 of 18"}
{"VL": "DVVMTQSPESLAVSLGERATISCKFQQSWLYESRNKNSVAWYQQKAGQPPKLLIYNASCRMSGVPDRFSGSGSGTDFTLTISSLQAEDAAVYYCQQYHRLPLSFGGGTKVEIK", "log10 Kd (nM) by replicate": "0.07 / 0.13 / -0.09 / -0.16 / 0.02 / 0.20", "mean, log10 nM": "0.03", "signal with controls": "1 of 18 (2.82)"}
{"VL": "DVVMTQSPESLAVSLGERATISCKLMQEMLYESRLANSVAWYQQKAGQPPKLLIYNASQREEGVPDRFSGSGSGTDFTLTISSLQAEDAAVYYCQQYHRLPLSFGGGTKVEIK", "log10 Kd (nM) by replicate": "0.18 / 0.49 / 0.03 / 0.27 / 0.48 / 0.27", "mean, log10 nM": "0.29", "signal with controls": "1 of 18 (2.80)"}
{"VL": "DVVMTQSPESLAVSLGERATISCKMQGSVMMLSRNDNSVAWYQQKAGQPPKLLIYDASTREEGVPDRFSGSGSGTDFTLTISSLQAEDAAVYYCQQYHRLPLSFGGGTKVEIK", "log10 Kd (nM) by replicate": "0.00 / 0.05 / -0.09 / -0.18 / -0.08 / 0.24", "mean, log10 nM": "-0.01", "signal with controls": "0 of 18"}
{"VL": "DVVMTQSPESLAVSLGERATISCKISQEYLGESRNMNSVAWYQQKAGQPPKLLIYNASTREAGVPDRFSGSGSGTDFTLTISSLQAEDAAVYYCQQYHRLPLSFGGGTKVEIK", "log10 Kd (nM) by replicate": "-0.01 / -0.03 / -0.19 / -0.20 / -0.32 / -0.09", "mean, log10 nM": "-0.14", "signal with controls": "0 of 18"}
{"VL": "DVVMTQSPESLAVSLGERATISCKLRFSVMEESRNKNSVAWYQQKAGQPPKLLIYSASLREWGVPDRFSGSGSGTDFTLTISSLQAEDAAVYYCQQYHRLPLSFGGGTKVEIK", "log10 Kd (nM) by replicate": "0.41 / 0.19 / 0.23 / -0.22 / 0.15 / 0.28", "mean, log10 nM": "0.17", "signal with controls": "0 of 18"}
{"VL": "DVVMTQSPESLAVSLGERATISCKMPQSWLYDSRNSNSVAWYQQKAGQPPKLLIYHASQRMSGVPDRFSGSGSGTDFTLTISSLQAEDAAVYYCQQYHRLPLSFGGGTKVEIK", "log10 Kd (nM) by replicate": "0.80 / 0.34 / 0.47 / 0.70 / 0.26 / 0.87", "mean, log10 nM": "0.57", "signal with controls": "1 of 18 (2.49)"}
{"VL": "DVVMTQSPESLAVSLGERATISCAVQQSELGGSRNKNSVAWYQQKAGQPPKLLIYNASTREDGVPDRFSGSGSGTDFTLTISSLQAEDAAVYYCQQYHRLPLSFGGGTKVEIK", "log10 Kd (nM) by replicate": "-0.02 / 0.10 / 0.00 / -0.26 / -0.05 / 0.19", "mean, log10 nM": "-0.01", "signal with controls": "0 of 18"}

The 2 strongest on average among those seen in every replicate, once more:

| VL | log10 Kd (nM) by replicate | mean, log10 nM | signal with controls |
|---|---|---|---|
| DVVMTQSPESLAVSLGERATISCKLQMSMLYESRNKNSVAWYQQKAGQPPKLLIYNASLRESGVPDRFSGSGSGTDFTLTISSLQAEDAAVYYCQQYHRLPLSFGGGTKVEIK | -0.14 / -0.49 / -0.43 / -0.63 / -0.44 / -0.30 | -0.40 | 0 of 18 |
| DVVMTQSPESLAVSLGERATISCKISQEYLGESRNMNSVAWYQQKAGQPPKLLIYNASTREAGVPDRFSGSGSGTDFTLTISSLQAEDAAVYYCQQYHRLPLSFGGGTKVEIK | -0.01 / -0.03 / -0.19 / -0.20 / -0.32 / -0.09 | -0.14 | 0 of 18 |